One molecule from the Kinase Knowledgebase extract (Sharma et al. 2016) can be followed below.

Chains of the proteins cited; added tags and fusions are not shown.
UniProt P00533, whole entry, looked up: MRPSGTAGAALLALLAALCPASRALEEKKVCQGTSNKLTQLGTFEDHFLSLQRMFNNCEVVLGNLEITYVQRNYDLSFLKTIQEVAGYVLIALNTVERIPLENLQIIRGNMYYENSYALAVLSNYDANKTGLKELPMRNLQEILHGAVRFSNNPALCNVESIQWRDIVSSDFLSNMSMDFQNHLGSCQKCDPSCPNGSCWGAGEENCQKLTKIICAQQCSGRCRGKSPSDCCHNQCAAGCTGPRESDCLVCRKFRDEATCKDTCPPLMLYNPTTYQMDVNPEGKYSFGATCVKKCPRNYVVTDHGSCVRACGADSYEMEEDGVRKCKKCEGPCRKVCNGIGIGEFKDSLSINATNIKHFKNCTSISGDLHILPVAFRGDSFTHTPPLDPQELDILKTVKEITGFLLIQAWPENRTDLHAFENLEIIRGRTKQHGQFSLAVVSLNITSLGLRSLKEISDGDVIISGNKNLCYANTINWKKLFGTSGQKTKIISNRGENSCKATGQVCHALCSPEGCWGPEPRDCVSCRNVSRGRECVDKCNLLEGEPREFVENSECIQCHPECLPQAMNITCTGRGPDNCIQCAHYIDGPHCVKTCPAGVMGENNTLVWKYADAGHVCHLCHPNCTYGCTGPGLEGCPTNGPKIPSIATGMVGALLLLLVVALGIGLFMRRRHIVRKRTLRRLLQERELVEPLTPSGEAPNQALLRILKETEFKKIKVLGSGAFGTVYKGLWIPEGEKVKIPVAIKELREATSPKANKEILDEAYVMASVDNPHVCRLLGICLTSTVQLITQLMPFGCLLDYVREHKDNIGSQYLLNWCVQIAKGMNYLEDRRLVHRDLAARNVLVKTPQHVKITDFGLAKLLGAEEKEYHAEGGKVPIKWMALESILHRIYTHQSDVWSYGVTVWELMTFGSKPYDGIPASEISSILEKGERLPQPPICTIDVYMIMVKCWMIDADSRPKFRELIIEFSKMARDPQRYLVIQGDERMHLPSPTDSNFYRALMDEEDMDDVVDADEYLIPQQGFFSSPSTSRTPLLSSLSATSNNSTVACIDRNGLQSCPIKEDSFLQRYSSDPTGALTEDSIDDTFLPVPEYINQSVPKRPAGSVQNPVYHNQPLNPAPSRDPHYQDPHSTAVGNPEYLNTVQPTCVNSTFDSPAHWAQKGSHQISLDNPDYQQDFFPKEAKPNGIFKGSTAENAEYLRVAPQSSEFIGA

Each structure is given as a SMILES string.

Assay [1] concerns the target EGFR (human) (UniProt P00533).
The target in assay [2] is EGFR (human) (UniProt P00533). The conditions noted are these: hn5.

`CS(=O)(=O)CCNCCCCOc1ccc2ncnc(Nc3ccc4c(cnn4Cc4cccc(F)c4)c3)c2c1`: the IC50 against EGFR (human) [1] is 22 nM; at EGFR (human) [2], 640 nM.

The IC50 is the point on the concentration scale where inhibition reaches its midpoint. The low end stands for greater potency in that assay, the high end for weaker potency in that assay.
